Values quoted from earlier work, collected in US20260382504A1, “A PROCESS OF PREPARATION OF FAST DISPERSING FILM CONTAINING ASCORBIC ACID AND PRODUCT THEREOF” (published 2026).

Key:
[1] = system: α4β2 subunit of nicotinic acetylcholine receptors (nAChRs); conditions: binding to α4β2 subunit
α4β2 receptors = conditions: leading to excessive release of dopamine into nucleus accumbens and prefrontal cortex
CYP2A6 = conditions: role: substrate, liver enzyme CYP2A6
[2] = accumulates in the body

| Structure (SMILES) | Ki [1] [nM] | agonist effect (α4β2 receptors) | oxidized metabolite cotinine formed (CYP2A6) [%] | detection in plasma after nicotine intake [2] |
| --- | --- | --- | --- | --- |
| CN1CCCC1c1cccnc1 (stereo not shown) | 1 | agonist effect on α4β2 receptors | 80 |  |
| CN1C(=O)CC[C@H]1c1cccnc1 |  |  |  | can be detected in plasma after several weeks of nicotine intake |
